Legend:
[1] = test system: ADP-induced platelet aggregation; assay: Platelet aggregation in human platelet-rich plasma; format: cell-based
hP2Y12R = assay: Increase in [Ca2+]i in U-205 cells stably transfected with hP2Y12R; format: cell-based, human

[BH3-][P@@](=O)(OC[C@H]1O[C@@H](n2cnc3c(N)nc(SC)nc32)[C@H](O)[C@@H]1O)OP(=O)([O-])[O-].[Na+].[Na+].[Na+] [analogue 3A, 2-Methylthioadenosine 5′-O-(′-Borano)diphosphate, A Isomer]
fold reduction of ADP-induced platelet aggregation ([1]; 10 μM, ADP 10 μM, human plasma): 8 fold
induction of platelet aggregation ([1]; human PRP, analogue alone, data not shown): does not cause platelet aggregation
activity at the P2Y12R relative to ADP (hP2Y12R): partial agonist activity

— article PMC4354947 (Journal of medicinal chemistry, 2012)
